## Binding of CDR-mutated scFvs to a peptide of the spike HR2 region

Data: MIT Lincoln Laboratory AlphaSeq set, Li et al. 2023, doi:10.1038/s41467-023-39022-2, as distributed in FLAb.

All variants were tested on one target, the spike HR2 peptide PDVDLGDISGINAS (SARS-CoV-2).

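The parent was found by panning a naive human phage display library on the peptide. The variants were designed computationally from a first round of random CDR variants and then made and measured. Several design methods are mixed in this list. Affinity was read by AlphaSeq, a pooled yeast mating assay with surface-displayed partners. Mating (16 h, 30 °C) was followed by selection of diploids and sequencing of their barcodes. Each replicate has its own calibration line, from reference interactions of the BCL2 family. Mating was done six times.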

Each scFv is VH, three GGGGS repeats, VL, as in the parent Ab-14, and differs from it in the CDRs of the light chain only.
VH: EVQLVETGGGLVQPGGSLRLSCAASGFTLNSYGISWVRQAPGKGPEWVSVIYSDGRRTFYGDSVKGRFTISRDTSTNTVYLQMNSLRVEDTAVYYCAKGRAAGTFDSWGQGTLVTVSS
VL: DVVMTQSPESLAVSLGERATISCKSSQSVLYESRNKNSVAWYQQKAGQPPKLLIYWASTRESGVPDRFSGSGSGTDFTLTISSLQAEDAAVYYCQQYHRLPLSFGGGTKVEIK

The parent's light chain CDRs are KSSQSVLYESRNKNSVA, WASTRES, QQYHRLPLS; each variant's own CDRs replace them letter for letter. Affinities are written as log10 Kd with Kd in nM; a lower number is a better binder. A mean of the replicates is given; it leaves out those without a signal. A pair that was not seen in any replicate is written "not detected"; this usually means weak binding, but a binder can also be missed.

"mean, log10 nM",replicates with signal,control signals,CDR-L1,CDR-L2,CDR-L3
-0.31,6/6,0/18,KLSQSELYESRNKNSVA,HASQRES,QQYHRLPLS
-0.15,6/6,1/18,KLSQSWLYESRNKNSVA,NASQRES,QQYHRLPLS
-0.43,6/6,1/18,KLSQSEGYESRNKNSVA,NASTRES,QQYHRLPLS
0.92,6/6,1/18,MFSQVMEYGSRYKNSVA,QASTRED,QQYHWLPLS
0.73,6/6,0/18,QLGKNQSGDTLSQGAIA,HAAELVD,QQYFRLPLL
not detected,0/6,2/18,KSSQSVLYESRNKNSVA,NASTRES,CQYCRLPLS
not detected,0/6,0/18,KSSQSVWYESRNKNSGA,WASTRRS,QQYHRLPLS
0.09,5/6,0/18,KSSGSQLYESRNSNSVA,HASTRES,QDYHRLPLS
0.39,6/6,0/18,KLRMSTLYESRNKNSVA,WASQRES,QQYHRLPLS
-0.43,6/6,2/18,KLSQSVLYESRNKNSVA,NASTRMS,QQYHRLPLS
1.74,5/6,0/18,TISQMSTLFSQSINNVA,EVSTREQ,QQYDRLPLV
1.27,6/6,0/18,KSSQSVLYESRNKNSVA,ECSTRED,QQYHRLPLS
1.64,6/6,3/18,MFEEYQSYGAANLNAVA,DANCTMF,QQYYRLPIS
0.89,12/12,1/36,KSSQSVLYESRNKNSVA,AASTRES,QQYHRLPLS
0.08,6/6,3/18,KLSQSWPGEQRNKNSVA,SASTREQ,QQYHRLPLS
0.13,6/6,1/18,KSSQVQLYESRNKNSVA,GASTRES,QQYHRLPLS
2.26,1/6,0/18,KLSMSVRMETFVKDNVA,ENSTREA,QDYHRLPLS
0.69,6/6,2/18,KLSQSVKYEDRNWNNVA,NASKRES,QAYHRLPLS
0.08,6/6,1/18,HSNGQLVMGERNKNHVA,STDVRAS,QQYSRLPFT
-0.35,6/6,0/18,KLDGSFNYESRNKNSVA,EASERES,QQYHRLPLS
-0.18,6/6,1/18,KLSQQDLYESRNKNSVA,EASTRES,QQYHRLPLS
0.53,6/6,2/18,MSSKSVLYESRNKNSVA,GASTRES,QQYHRLPLS
1.89,3/6,0/18,KSSQSVLYESRNKNSVA,WASTRQS,QQQHRLPLS
1.10,6/6,0/18,MLSQMWAVGSKVSNSVA,QASMRFN,QQYDRLPLI
0.51,6/6,0/18,KSSQDVLYESRNKNGLA,DASTCES,QQYHRLPLS
0.16,6/6,2/18,KQSQSGLYEWRNKNSVA,DASTRES,QQYHRLPLS
1.12,6/6,0/18,HMSALTLMGTRNRNSVA,QMTTREN,QQYDRLPLA
1.85,6/6,1/18,QITHNQLDYKNREANIA,HESMRLV,QQYSQLPLT
1.72,1/6,1/18,KLLQTVMNGKRNRNNVA,HMTMRES,QQYFRLPLS
0.59,6/6,1/18,KLMQSDLYESRNVNNVA,QASQREL,QQYHRLPLS
2.63,4/6,4/18,RLSALSGIQEVERNSVA,QNSTREE,QQYDHLPLS
not detected,0/6,0/18,KSSQSVLGESRNKNSVA,WASTRES,QQYHLLPCS
0.10,6/6,1/18,ALSQMMDMTSRNKNSVA,DLTTREN,QQYHRLPLS
-0.18,6/6,0/18,KIQQFYEGESRNKNSVA,SASTRES,QQYHRLPLS
0.02,6/6,1/18,TISDVMGHLTKAHNNVA,DMDTRGD,QQYNRLPLS
1.02,6/6,2/18,MLSDLVKMGVRNTNSVA,DNSTRGD,QQYDRLPLS
0.30,6/6,0/18,KSSMSVLYESGNKNSVA,HASTRED,QQYHRLPLS
2.38,6/6,0/18,KFGQMVLMGSYVRNSVA,QSSTREN,QQYDRLPLS
0.44,6/6,0/18,KSGQGVLYESRNKQSVA,GASTRES,QQYHRLPLS
-0.14,6/6,1/18,KSSQSEHYESRNKNSVA,GASTRES,QQYHRLPLS
-0.05,6/6,0/18,RFQQWSLESNNTEKSIA,SASNREQ,QQYARLPLF
0.65,6/6,0/18,HVHMEFAEEKNIRYNIA,DASMRLA,QQYVRLPLG
-0.10,6/6,2/18,KLSQSVLYESRDKNSVA,NASTRES,QQYHRLPLS
3.07,3/6,2/18,KVSEFMRGLMNRSDSIA,DNVTRNK,QQYDRLPLS
1.20,6/6,1/18,KLRLHNLMFYENENSIA,GVSNRAY,QQYYRLPLN
not detected,0/6,0/18,KISQMVRVGSTASNSIA,EEQTRAK,QQYHRLPLA
0.35,6/6,0/18,HSSPSGLYESRNKNSVA,NASTRES,QQYHRLPFS
1.06,6/6,0/18,KLSMSYRYEQENKNSIA,ELVTRMS,QQYHRLPLS
3.26,2/6,1/18,KSSQSVLYESRNKNSVA,WASTREQ,QQYHGLPLS
not detected,0/6,0/18,QLDHQLQYMDANKQSVA,EMTEVTT,QQYHRLPLE
1.77,1/6,0/18,IVSQLMLWGMHVKNSIA,EAVTRLN,QQYDRLPLG
1.09,6/6,0/18,KIGFTLNMLEYKQNNVA,DLVTREN,QQYHRLPLS
0.85,6/6,3/18,KIGQQVTYESTVNNAIA,QMTTREE,QQYHRLPLS
0.05,6/6,0/18,KSSPSYLYESRNKNSVA,EASTRES,QQYHRLPLM
1.02,6/6,0/18,MMSQVTGYGTRMRNNVA,QTSTREP,QQYDRLPLI
0.31,6/6,0/18,NSSQSELYESRNKNSVA,GGNTRES,QQYHRLPLS
1.21,6/6,1/18,KFSQSVLYESRQKNSVA,NASTRES,QWYHRLPLS
1.12,1/6,0/18,SITVIDNYGSQLENNIA,QGVCKAE,QQYIRLPLI
-0.14,6/6,0/18,KSSQSWLYESRNKNSVA,GASTREV,QQYHRLPLS
2.23,4/6,0/18,KLLDWYYGQTAMDSNIA,DQALEMD,QQYSRLPLT
0.10,6/6,1/18,KVSQSELYESRNKNSVA,NASTRED,QQYHRLPLS
0.18,6/6,1/18,MMSQVTGLGQRHRNNVA,QTSTRED,QQYDHLPLA
1.49,1/6,0/18,RIEDHHAEGEMRHSSIA,EESYRMD,QHYSRLPLA
0.42,6/6,2/18,KSSISELYESRNKNSVA,AASTRES,QQYHRLPLS
1.18,6/6,1/18,KSSQSVLYESRNKNSVA,SASTREE,QQYHRLPLS
2.41,6/6,0/18,MLSMLADYSQVSKNSVA,EMETREN,QQYDRLPLI
-0.10,6/6,0/18,KLSMMYQHTSRNKNNIA,ERSTREE,QQYHHLPLS
0.11,6/6,0/18,KLSESVLYESRNKNSVA,HASTRES,QQYHRLPLS
0.29,6/6,0/18,KISQMVRVGQTHSNSIA,EEATRAK,QQYHRLPLS
0.22,6/6,1/18,KVMQLQDYESRNKNSVA,HASQREQ,QQYHRLPLS
-0.22,6/6,0/18,KLYSNVGTMSHNKQSIA,DMERRED,QQYHRLPLS
2.25,4/6,0/18,KLPQNVLYESCNKNSVA,WASARES,QQYHRLPLS

Excerpt, the final 4 entries:

CDR-L1,CDR-L2,CDR-L3,"mean, log10 nM",replicates with signal,control signals
KISQMVRVGQTHSNSIA,EEATRAK,QQYHRLPLS,0.29,6/6,0/18
KVMQLQDYESRNKNSVA,HASQREQ,QQYHRLPLS,0.22,6/6,1/18
KLYSNVGTMSHNKQSIA,DMERRED,QQYHRLPLS,-0.22,6/6,0/18
KLPQNVLYESCNKNSVA,WASARES,QQYHRLPLS,2.25,4/6,0/18

The authors' rule: three or more of the six replicates give a measured affinity, fewer mean a poor binder. Where one sequence has several entries in the source, the replicates are pooled. Background: pairings of all light chain designs with three empty control strains gave a value in 4% of cases (median 2.64, 5th percentile 1.59). Values in that range, when seen in few replicates, are hard to tell from nonspecific mating. The control count says in how many pairings with the empty strains this scFv gave a signal. The parent sequence was in this pool as ten entries: three were never detected, three once, and four in most replicates, with averages from 0.34 to 2.37. A sequence measured in both rounds can read differently, since the two assays cover different ranges.